The values that follow come from ChEMBL document CHEMBL1139370, “Discovery of 1-[9-(4-chlorophenyl)-8-(2-chlorophenyl)-9H-purin-6-yl]-4-ethylaminopiperidine-4-carboxylic acid amide hydrochloride (CP-945,598), a novel, potent, and selective cannabinoid type 1 receptor antagonist” (J Med Chem, 2009).

Amino acid sequences for entries named in this document (tags omitted).
UniProt P21554, whole entry: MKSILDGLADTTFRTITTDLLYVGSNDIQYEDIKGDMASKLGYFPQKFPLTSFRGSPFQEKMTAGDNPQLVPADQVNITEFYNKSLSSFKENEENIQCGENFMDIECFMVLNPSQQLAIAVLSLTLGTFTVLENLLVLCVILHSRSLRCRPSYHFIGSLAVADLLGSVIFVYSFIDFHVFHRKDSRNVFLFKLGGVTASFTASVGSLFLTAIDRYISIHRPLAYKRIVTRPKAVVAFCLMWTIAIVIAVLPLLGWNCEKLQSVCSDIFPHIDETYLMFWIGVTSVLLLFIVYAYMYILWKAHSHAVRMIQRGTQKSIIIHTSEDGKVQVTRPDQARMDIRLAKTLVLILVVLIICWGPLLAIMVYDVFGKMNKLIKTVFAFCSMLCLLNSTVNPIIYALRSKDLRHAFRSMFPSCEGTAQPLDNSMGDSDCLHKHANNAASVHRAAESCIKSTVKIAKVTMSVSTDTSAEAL

The test deals with Cannabinoid receptor 1 (Homo sapiens, UniProt P21554). Nature of the test: biochemical. Format: cell-based, HEK293.

As for `CN1CCN(c2ncnc3c2nc(-c2ccccc2Cl)n3-c2ccc(Cl)cc2)CC1`, the Ki (commonly the equilibrium dissociation constant of an inhibitor or competing ligand from its target) was determined as 2.8 nM.
